Biological target: Histone acetyltransferase p300 (Homo sapiens, UniProt Q09472)
Assay: Inhibition of human p300 HAT domain (1195 to 1673 residues) at 10 uM using histone H3 peptide and acetyl-coA as substrates preincubated for 10 mins followed by substrate addition and measured after 30 mins by beckman scintillation counting analysis relative to control
Settings: time 40.0 min
How it was run: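 Single-concentration screen at 10 μM in the radiometric p300 HAT domain assay: enzyme 10 nM, pH 7.0 phosphate/Brij-35, 10 min preincubation, then H3(1-21) peptide 20 μM plus ³H/unlabelled Ac-CoA (20 μM total), 30 min at 25 °C. Filter-bound ³H-acetylated peptide was counted, and the value is given as % inhibition.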

Sequences of proteins named here, by UniProt entry; tags and fusion partners are left off.
UniProt Q09472, whole entry: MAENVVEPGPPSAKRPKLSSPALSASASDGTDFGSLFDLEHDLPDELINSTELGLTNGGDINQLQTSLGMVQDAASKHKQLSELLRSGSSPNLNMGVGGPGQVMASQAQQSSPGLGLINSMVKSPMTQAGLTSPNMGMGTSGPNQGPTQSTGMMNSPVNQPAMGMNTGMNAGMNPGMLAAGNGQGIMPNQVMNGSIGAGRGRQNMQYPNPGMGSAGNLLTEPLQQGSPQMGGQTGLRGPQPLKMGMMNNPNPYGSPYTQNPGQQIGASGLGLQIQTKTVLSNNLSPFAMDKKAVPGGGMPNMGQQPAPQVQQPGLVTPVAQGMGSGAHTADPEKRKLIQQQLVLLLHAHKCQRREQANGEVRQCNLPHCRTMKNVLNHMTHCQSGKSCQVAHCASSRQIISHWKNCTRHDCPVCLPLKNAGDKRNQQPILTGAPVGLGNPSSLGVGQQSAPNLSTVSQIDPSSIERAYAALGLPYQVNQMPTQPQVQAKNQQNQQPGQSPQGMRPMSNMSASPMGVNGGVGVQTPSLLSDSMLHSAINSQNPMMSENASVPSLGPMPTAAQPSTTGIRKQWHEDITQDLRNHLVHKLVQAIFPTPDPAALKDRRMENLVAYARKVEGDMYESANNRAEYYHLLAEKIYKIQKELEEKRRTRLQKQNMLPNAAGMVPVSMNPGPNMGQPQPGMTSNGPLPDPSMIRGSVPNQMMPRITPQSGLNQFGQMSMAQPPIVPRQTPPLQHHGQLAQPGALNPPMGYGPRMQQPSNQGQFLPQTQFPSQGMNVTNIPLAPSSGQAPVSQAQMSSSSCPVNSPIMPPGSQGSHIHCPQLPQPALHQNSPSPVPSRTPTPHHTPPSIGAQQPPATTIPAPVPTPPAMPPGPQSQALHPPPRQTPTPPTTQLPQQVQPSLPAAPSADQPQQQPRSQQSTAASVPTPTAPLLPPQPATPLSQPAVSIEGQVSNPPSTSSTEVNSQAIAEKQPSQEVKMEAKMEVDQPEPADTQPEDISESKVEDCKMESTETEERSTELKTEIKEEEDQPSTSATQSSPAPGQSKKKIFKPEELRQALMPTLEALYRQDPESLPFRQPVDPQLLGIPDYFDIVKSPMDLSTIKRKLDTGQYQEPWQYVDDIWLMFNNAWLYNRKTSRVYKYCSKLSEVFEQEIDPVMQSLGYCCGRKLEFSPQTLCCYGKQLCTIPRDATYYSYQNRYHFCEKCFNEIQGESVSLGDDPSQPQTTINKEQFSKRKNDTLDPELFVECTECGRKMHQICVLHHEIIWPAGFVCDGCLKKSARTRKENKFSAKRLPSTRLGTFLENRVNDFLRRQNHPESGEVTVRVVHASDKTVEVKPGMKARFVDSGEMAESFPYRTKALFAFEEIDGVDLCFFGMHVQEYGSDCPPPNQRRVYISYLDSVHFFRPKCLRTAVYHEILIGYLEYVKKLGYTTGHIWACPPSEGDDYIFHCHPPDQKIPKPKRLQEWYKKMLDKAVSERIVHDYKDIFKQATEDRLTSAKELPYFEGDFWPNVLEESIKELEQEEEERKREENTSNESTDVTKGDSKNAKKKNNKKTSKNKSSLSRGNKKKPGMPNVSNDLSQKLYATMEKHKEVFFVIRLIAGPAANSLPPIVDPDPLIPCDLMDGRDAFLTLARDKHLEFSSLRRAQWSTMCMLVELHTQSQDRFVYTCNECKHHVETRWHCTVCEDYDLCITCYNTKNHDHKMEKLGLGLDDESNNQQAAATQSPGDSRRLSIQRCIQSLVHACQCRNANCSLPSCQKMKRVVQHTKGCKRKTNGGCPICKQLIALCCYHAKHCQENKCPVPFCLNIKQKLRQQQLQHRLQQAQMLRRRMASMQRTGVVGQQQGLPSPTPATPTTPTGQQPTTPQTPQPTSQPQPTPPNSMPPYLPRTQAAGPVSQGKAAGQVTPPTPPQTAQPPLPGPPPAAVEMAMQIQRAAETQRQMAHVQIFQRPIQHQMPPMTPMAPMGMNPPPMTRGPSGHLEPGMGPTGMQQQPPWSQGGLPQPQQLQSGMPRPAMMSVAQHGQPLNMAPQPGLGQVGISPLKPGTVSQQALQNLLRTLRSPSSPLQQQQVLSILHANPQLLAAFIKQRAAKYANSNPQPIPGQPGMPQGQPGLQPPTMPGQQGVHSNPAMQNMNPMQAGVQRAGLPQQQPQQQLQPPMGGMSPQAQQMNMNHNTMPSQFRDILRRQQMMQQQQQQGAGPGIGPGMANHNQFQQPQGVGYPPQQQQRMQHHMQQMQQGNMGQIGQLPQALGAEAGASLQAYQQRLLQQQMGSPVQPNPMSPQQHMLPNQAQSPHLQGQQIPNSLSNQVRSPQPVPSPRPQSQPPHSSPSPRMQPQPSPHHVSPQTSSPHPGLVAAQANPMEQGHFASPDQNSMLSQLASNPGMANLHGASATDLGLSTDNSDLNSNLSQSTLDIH

SMILES: NCCCOc1cnc(-c2ccc(Br)cc2)c(-c2ccc(Br)cc2)n1
- inhibition: 35.4%

SMILES: CNCCCCOc1cnc(-c2ccc(Br)cc2)c(-c2ccc(Br)cc2)n1
- inhibition: 19.1%

SMILES: Clc1ccc(-c2ncc(OCC3CCNCC3)nc2-c2ccc(Cl)cc2)cc1
- inhibition: 41%

SMILES: CN(C)Cc1ccc(-c2ncc(OCC3CCNCC3)nc2-c2ccc(CN(C)C)cc2)cc1
- inhibition: 46.3%

SMILES: Brc1ccc(-c2ncc(OCC3CCNC3)nc2-c2ccc(Br)cc2)cc1 (configuration not stated)
- inhibition: 42.7%

SMILES: NCCCCOc1cnc(-c2ccc(Br)cc2)c(-c2ccc(Br)cc2)n1
- inhibition: 21.2%

SMILES: NC1CCC(COc2cnc(-c3ccc(Br)cc3)c(-c3ccc(Br)cc3)n2)CC1 (configuration not stated)
- inhibition: 59.1%

Reference: ChEMBL document CHEMBL5120858, “Structure-activity relationship and antitumor activity of 1,4-pyrazine-containing inhibitors of histone acetyltransferases P300/CBP” (Eur J Med Chem, 2022)
